# Ab-14 heavy chain CDR variants: yeast mating affinities

Data: MIT Lincoln Laboratory AlphaSeq set, Engelhart et al. 2022, doi:10.1038/s41597-022-01779-4, as distributed in FLAb.

The target is the same throughout: PDVDLGDISGINAS, from the HR2 region of SARS-CoV-2 spike.

Parent: Ab-14, a human scFv built as VH, a (GGGGS)3 linker, VL. Only the CDRs of the heavy chain vary.
VH: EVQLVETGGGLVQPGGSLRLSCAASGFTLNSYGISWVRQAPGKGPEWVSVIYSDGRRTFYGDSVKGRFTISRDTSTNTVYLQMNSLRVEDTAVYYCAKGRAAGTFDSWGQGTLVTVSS
VL: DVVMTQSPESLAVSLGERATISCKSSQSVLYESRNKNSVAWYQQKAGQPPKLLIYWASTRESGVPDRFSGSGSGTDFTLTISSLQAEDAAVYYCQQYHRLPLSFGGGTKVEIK

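The parent was found by panning a naive human phage display library on the peptide. Variants in AAYL49 differ from the parent at up to three CDR positions; double and triple changes were sampled at random. Affinity was read by AlphaSeq, a pooled yeast mating assay with surface-displayed partners. Binding brings cells together so that they mate, and sequencing counts the barcode pairs among the diploids. A regression on co-assayed BCL2-family reference pairs converts the normalised counts of each replicate to an apparent Kd. Each pool was mated in three replicate cultures.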

Changes read parent residue, position, new residue, counted from the first residue of the VH shown. All variants listed here change G26 of the VH, counted from its first residue. Kd is apparent (estimated from mating counts) and averaged on the log scale over replicates with a signal. Smaller is tighter. "nd" marks a missing value. The strain was present, yet no cells mated with the target were sequenced in any replicate, which points to weak or no binding.

For G26D+T104R+F105I, the assay gave 23 µM (1 of 3 replicates). For G26C+D106Q+S107H, the assay gave 2.4 µM (3 of 3 replicates). For G26F+D54G+T104R, the assay gave nd (0 of 3 replicates). For G26R+N30F+S53L, the assay gave 12 µM (2 of 3 replicates). Variant G26M+V64G+K65E gave nd (0 of 3 replicates).

Variant G26W+T58R+G61F showed nd (0 of 3 replicates). Variant G26P+S35N+R100I showed nd (0 of 3 replicates). Variant G26M+R56H+V64M showed 57 µM (2 of 3 replicates). Variant G26S+S31E+F59I showed 5.8 µM (3 of 3 replicates). Variant G26C+D62L+D106R showed nd (0 of 3 replicates).

For G26W+G33R+A102F, the assay gave nd (0 of 3 replicates). With G26P+Y32S+R57G the result was nd (0 of 3 replicates). For G26F+T58S+F59K, the assay gave 67 µM (3 of 3 replicates). Variant G26N+S53I+T104G showed nd (0 of 3 replicates). With G26S+Y32K+I34D the result was 70 µM (1 of 3 replicates).

With G26T+R57M+R100C the result was nd (0 of 3 replicates). For G26I+G55C+K65A, the assay gave 27 µM (1 of 3 replicates). Variant G26W+V50I+T58S showed nd (0 of 3 replicates). Variant G26F+K65Y showed nd (0 of 3 replicates). With G26P+G99P the result was nd (0 of 3 replicates).

With G26V+L29E+D106N the result was nd (0 of 3 replicates). For G26I, the assay gave 580 nM (3 of 3 replicates). With G26E+F59Q+D62P the result was 84 nM (3 of 3 replicates). Variant G26E+R100M showed 4.9 µM (1 of 3 replicates). For G26E+S53E+R100W, the assay gave 5.6 µM (1 of 3 replicates).

With G26H+S35H+A101N the result was 2.8 nM (3 of 3 replicates). With G26P+V64E the result was nd (0 of 3 replicates). Variant G26E+S31N+R100G showed 15 nM (3 of 3 replicates). Variant G26N+G103N+D106V gave nd (0 of 3 replicates). For G26T+Y32H+A102F, the assay gave 31 µM (2 of 3 replicates).

Variant G26S+S35D+D106C gave 42 µM (3 of 3 replicates).

As a blank, each scFv also met three strains without target: over library AAYL49, 15% of these pairings were detected, typically at 11 µM and seldom below 680 nM. In this assay the parent's reference entry averaged 4.4 nM; its copy inside this library read 13 µM (one replicate of three).